Measured values taken from patent publication US20230263863A1, “COMPOSITIONS HAVING NEUROREGENERATIVE APPLICATIONS” (GRIFOLS WORLDWIDE OPERATIONS LIMITED, priority 2020, published 2023).

System: SH-SY5Y cells
Experiment: Neurite outgrowth (Outgrowth Fold Change) in undifferentiated SH-SY5Y cells
Assay type: cell-based, human
Details: all proteins 0.2 mg/mL
Experimental: Undifferentiated SH-SY5Y cells were seeded into 96 well clear bottom plates in media containing 0.1% FBS. A serum-free base media was utilized as recommended by the supplier for SH-SY5Y cells (Sigma, Cat #94030304-1VL). Twenty-four hours after seeding cells, a 3× stock solution of ApoTf, final concentrations indicated on the x-axis, in serum free base media was added to the cells. ApoTf was obtained and purified from pooled human plasma and dosed at a final concentration of 0.2 mg/mL. Cells were allowed to differentiate for 6 days. Neurite growth was assessed by imaging and image analysis. At the time of analysis, a 10× solution of Tubulin Tracker (Molecular Probes, T34075) and Hoechst 33342 (Molecular Probes #H3570) nuclear stain was prepared.
Briefly, Tubulin Tracker dissolved in DMSO was diluted 1:1 with Pluronic F-127 and further diluted into HBSS to generate a 10× solution. Hoechst 33342 was added to the HBSS-Tubulin Tracker solution at 10 μg/mL to generate a 10× nuclear stain. […]
After obtaining images, the MetaExpress Neurite Outgrowth analysis module (Molecular Devices) was used to identify cells, cell bodies, and quantify neurites. […] The Outgrowth Fold Change was determined by setting the untreated control cells to a value of 1 with all other treatments shown relative to untreated control.

| Substance | neurogenesis / differentiation (neurite outgrowth) (FIG. 3B) | neurogenesis / differentiation (neurite outgrowth) (FIG. 4) |
| --- | --- | --- |
| pdHSA: plasma-derived human serum albumin [reference compound] | did not affect neurogenesis |  |
| rHSA: low-affinity iron binding form of human serum albumin, from Albumedix [reference compound] |  | neither bovine serum albumin (BSA) nor a low-affinity iron binding form of human serum albumin affected neurogenesis |
